# Apparent affinities of Ab-95 variants for a coronavirus HR2 peptide

Data: MIT Lincoln Laboratory AlphaSeq set, Engelhart et al. 2022, doi:10.1038/s41597-022-01779-4, as distributed in FLAb.

Target: peptide PDVDLGDISGINAS, taken from heptad repeat 2 (HR2) of SARS-CoV-2 spike.

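Phage display of a naive human antibody library on the peptide gave the parent. The library (AAYL52) carries one to three amino acid substitutions per variant, with no insertions or deletions. Affinity was read by AlphaSeq, a pooled yeast mating assay with surface-displayed partners. Mating (16 h, 30 °C) was followed by selection of diploids and sequencing of their barcodes. Read counts were normalised to the haploid input and turned into Kd by a linear fit to BCL2-family pairs of known affinity, for each replicate. The assay was run in three technical replicates.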

Parent: Ab-95, a human scFv built as VH, three GGGGS repeats, VL. Only the CDRs of the light chain vary.
VH: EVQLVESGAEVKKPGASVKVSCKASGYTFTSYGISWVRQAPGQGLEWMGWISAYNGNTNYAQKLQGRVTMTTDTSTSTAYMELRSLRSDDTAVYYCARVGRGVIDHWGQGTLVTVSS
VL: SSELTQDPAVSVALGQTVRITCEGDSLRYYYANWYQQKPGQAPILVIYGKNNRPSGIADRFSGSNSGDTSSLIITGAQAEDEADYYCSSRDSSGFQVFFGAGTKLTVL

Positions count from residue 1 of the parent VL; P54S puts S in place of P. Kd is apparent (estimated from mating counts) and averaged on the log scale over replicates with a signal. Smaller is tighter. A pair that was not seen in any replicate is written "not detected"; this usually means weak binding, but a binder can also be missed.

changes	apparent Kd	detected
P54S+D91V+F95L	13 µM	3 of 3
A32L+G94C+F95Y	20 µM	2 of 3
G49A+N51I+S93K	not detected	0 of 3
Y30F+A32E+D91S	10 µM	2 of 3
Y29A+S88G+D91R	1.4 µM	3 of 3
G24P+Y30S+D91R	not detected	0 of 3
Y31A+S92C+V97R	190 nM	3 of 3
S26K+S93W+F98Q	9.9 µM	2 of 3
S89P+F95I+V97R	620 nM	3 of 3
N52S+Q96D+V97T	1.4 µM	2 of 3
R53G+V97M+F98A	not detected	0 of 3
S26C+A32N+S89R	not detected	0 of 3
N52H+S89V+S92V	3.1 µM	2 of 3
N33A+N52F+S88A	1.1 µM	1 of 3
L27W+D91C+F98A	not detected	0 of 3
E23P+K50M+S88Q	4.5 µM	2 of 3
Y31T+N33S+S93N	610 nM	3 of 3
N51P+S92K+V97Q	2.5 µM	1 of 3
S55W+S93W	26 µM	1 of 3
A32V+P54W+D91C	310 µM	1 of 3
G24W+K50R+R90F	42 µM	3 of 3
D25Q+Y30S+N51S	13 nM	3 of 3
D25Q+D91K+F95V	9.4 µM	1 of 3
N52Y+D91P+V97G	650 nM	2 of 3
Q96C+F98T	130 nM	2 of 3
P54G+G94W+F98W	420 nM	2 of 3
Y29L+G94Q	12 µM	2 of 3
D25W+S92C+F95S	5.1 µM	3 of 3
R28A+G49Q+N52Q	1.7 µM	3 of 3
N51D+Q96D	340 nM	3 of 3
R28V+G49D+R53Y	4.8 µM	3 of 3
R53S+P54A+Q96G	600 nM	3 of 3
Y30C+R53C+S93C	210 µM	1 of 3
K50C+P54C	84 µM	2 of 3
L27D+A32V+D91C	1.6 µM	2 of 3
K50T+N51T+R53I	12 µM	1 of 3
D25I+S92G+F98N	630 nM	3 of 3
S55V+G94P+Q96T	640 nM	3 of 3
D25N+R53C+R90L	not detected	0 of 3
E23T+A32E+V97A	21 µM	1 of 3
G49I+R53G+V97N	3.3 µM	1 of 3
E23N+A32D+N52D	43 nM	3 of 3
D25H+P54D+S88D	2.0 µM	2 of 3
E23S+R53Q+F95L	1.5 µM	3 of 3
D25T+N52S+S92P	140 nM	3 of 3
E23D+R53A+S93N	2.2 µM	2 of 3
S26D+Y29E+N51F	11 µM	2 of 3
G24W+R28N+S92H	not detected	0 of 3
N33S+N52L+S89R	6.8 µM	2 of 3

Again, the first 6 entries without any signal:

changes	apparent Kd	detected
G49A+N51I+S93K	not detected	0 of 3
G24P+Y30S+D91R	not detected	0 of 3
R53G+V97M+F98A	not detected	0 of 3
S26C+A32N+S89R	not detected	0 of 3
L27W+D91C+F98A	not detected	0 of 3
D25N+R53C+R90L	not detected	0 of 3

Parent in this assay: reference entry 200 nM, copy in this library 180 nM. Nonspecific signal, from three strains lacking the peptide, appeared in 28% of pairings of library AAYL52, centred on 8.2 µM (5% of these signals below 800 nM); values are not corrected for it.